The list shows a part of the results, in another mix than the full data. Calls of active or inactive are those of the source.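 How the source made its calls: active means signal change above the mean of dofetilide-free buffer controls plus 3 SD, so a positive margin; inactive means the rest.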

A short description of this experiment: thallium signal changes without hERG – cell-based, CHO-K1 parental line, FluxOR thallium flux, counter-screen for hERG block protection project, confirmation (AID 1839).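 Further: compounds applied alone with no dofetilide to cells lacking hERG.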 Conditions: CHO-K1 parental cells, FluxOR thallium flux fluorescence; at 10 µM.
For the compound `Cc1ccc(NP(=O)(Oc2ccccc2F)Oc2ccccc2F)nc1`, the signal change vs control minus 3*SD hit threshold (margin above threshold, higher = more increase) is inactive: -28%.

Values taken from PubChem BioAssay AID1839 (Johns Hopkins Ion Channel Center, 2009).
